{"sequences": {"note": "The chains behind the UniProt entries cited, without tags or fusion partners. Residues count along the entry.", "UniProt P71278, 2-365 limits assumed": "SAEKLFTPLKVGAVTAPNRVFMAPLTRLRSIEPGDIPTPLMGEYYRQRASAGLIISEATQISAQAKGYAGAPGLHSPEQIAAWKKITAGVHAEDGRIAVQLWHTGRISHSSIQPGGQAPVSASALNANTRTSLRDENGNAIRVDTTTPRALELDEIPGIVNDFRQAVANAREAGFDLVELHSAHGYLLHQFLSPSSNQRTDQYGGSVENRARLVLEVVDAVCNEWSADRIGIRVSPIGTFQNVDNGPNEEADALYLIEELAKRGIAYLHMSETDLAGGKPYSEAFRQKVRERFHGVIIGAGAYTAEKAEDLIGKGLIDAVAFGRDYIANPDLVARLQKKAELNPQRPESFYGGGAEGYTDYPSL"}, "source": "patent US5928859A", "about": "“Detection and biodegradation of explosives” (dated 1999)", "key": {"[1]": {"biological_target": "T1, PETN reductase (Enterobacter cloacae, UniProt P71278)", "assay": "Apparent Km of PETN reductase for nitrate ester substrates", "conditions": "read-out: apparent Km for EGDN; EGDN concentrations between 0.5 and 2.5 mM"}, "[2]": {"biological_target": "T1, PETN reductase", "assay": "Nitrite liberation / reaction products of purified PETN reductase with NADPH", "conditions": "in the presence of NADPH"}, "[3]": {"test_system": "Enterobacter cloacae PB2", "assay": "Degradation of PETN by growing cells"}}, "note": "Some compounds may have been tested in ways that are not shown here."}
{"molecule": "O=[N+]([O-])OCCO[N+](=O)[O-]", "values": [{"measurement": "Km", "setting": "[1]", "value": 2000, "unit": "µM"}, {"measurement": "liberation of nitrite by PETN reductase", "setting": "[2]", "value": "liberate nitrite"}]}
{"molecule": "O=[N+]([O-])OCC(CO[N+](=O)[O-])(CO[N+](=O)[O-])CO[N+](=O)[O-]", "values": [{"measurement": "specific degradation rate of PETN by growing cells", "setting": "[3]", "value": "1.03 mmol PETN (g protein)^-1 h^-1"}]}
